Assay results published in patent publication US20260199493A1 (priority 2021, published 2026).
Read-outs that look alike come from different tables or passages of the source.

Legend:
[1] = HSA-LR mice
[2] = system: Human Primary Renal Proximal Tubular Epithelial Cells (RPTECs); details: 24 hours
[3] = Adverse effects and clinical chemistry in hDMD mice; type: in vivo; details: for adverse effects post injection: 10-80 mpk IV; for toxicity by clinical chemistry (liver and kidney panel, hemolysis, lipemia): 5 days post IV injection
[4] = Tissue concentration by LC-MS/MS in hDMD mice; type: in vivo; details: 5 days; for tissue concentration in skeletal muscles / tissue concentration in the heart: 40 mpk IV
[5] = Tolerability and clinical chemistry in NHP; type: in vivo, cynomolgus monkeys; details: 40 mg/kg; for clinical chemistry panel: 2-d and 7-d post injection; for tolerability: 60-minute IV infusion
Tolerability in CD1 mice = type: in vivo; details: for tolerability: 80 to 300 mpk
[6] = Tissue concentration and plasma levels in NHP; type: in vivo, cynomolgus monkeys
[7] = system: primary human renal proximal tubular epithelial cells (RPTECs); details: RPTEC, 24 h; Compound 1b vs. EEV12
[8] = system: human umbilical vein endothelial cells (HUVECs); details: HUVEC, 24 h, CyQuant Green, relative to vehicle
[9] = system: human fibroblast cell line WI38; details: WI38, 24 h, CellTiter-Glo 2.0, relative to vehicle
[10] = system: WI38, RPTEC, and HUVEC cells; details: 1 h treatment, relative to 1% Triton-X100 lysis
[11] = system: human peripheral blood mononuclear cells (hPBMCs); details: 24 h, CyQuant Green, relative to vehicle

Ac-PKKKRKV-AEEA-K(cyclo[FGFGRGRQ])-PEG12-OH [EEV-PMO-DM1-3]
drug levels in muscle tissues ([1]; 15-90 mpk IV, 1 week): dose-dependent response
drug levels in liver and kidney ([1]; 80 mpk, 1 week to 4 week): decrease in drug levels
drug level in muscle tissue ([1]; 80 mpk, 1 week to 4 weeks): decrease in drug level
toxicity (viability): no toxicity at highest concentration tested [2]: > 797 µM

Ac-PKKKRKV-AEEA-K(cyclo[GfFGrGrQ])-PEG12-OH [EEV-PMO-DMD44-2]
adverse effects post injection [3]: No severe adverse effect
toxicity by clinical chemistry (liver and kidney panel, hemolysis, lipemia) [3]: No significant toxicity
tissue concentration in skeletal muscles [4]: 300-500 ng/g tissue
tissue concentration in the heart [4]: 350 ng per gram tissue
clinical chemistry panel [5]: No abnormality
tolerability [5]: well-tolerated
symptoms (Tolerability in CD1 mice; CD1 mice, 100 mpk IV): one out of three mice showed delayed symptoms 2 hours post injection
symptoms (Tolerability in CD1 mice; CD1 mice, 200 mpk IV): one out of three mice had severe symptoms
mortality (Tolerability in CD1 mice; CD1 mice, 300 mpk IV): one out of three mice died within 1-3 h post injection
tolerability (Tolerability in CD1 mice; CD1 mice, IV): less tolerated
symptoms (Tolerability in CD1 mice; mouse, in vivo): No symptoms were observed

Ac-PKKKRKV-AEEA-Lys-(cyclo[FGFGRGRQ])-PEG12-OH [EEV-PMO-DMD44-1]
adverse effects post injection [3]: No severe adverse effect
toxicity by clinical chemistry (liver and kidney panel, hemolysis, lipemia) [3]: No significant toxicity
tissue exposure ([4]; 10 to 80 mg/kg IV, cardiac and skeletal muscles, maximum): up to 80%
tissue concentration in skeletal muscles [4]: 100-300 ng/g tissue
tissue concentration in the heart [4]: 170 ng per gram tissue
extended circulating half-life observed in plasma [6]: up to 50 hours
clinical chemistry panel [5]: No abnormality
tolerability [5]: well-tolerated
biomarker abnormalities (Tolerability in CD1 mice; CD1 mice, 1- and 7-days post injection): No biomarker abnormalities were observed
tolerability (Tolerability in CD1 mice; CD1 mice, IV): very well tolerated
symptoms post injection (Tolerability in CD1 mice; CD1 mice, IV, all doses, completely resolved 1 hour post injection): Only transient symptoms were observed

Ac-PKKKRKV-PEG2-K(cyclo[FfΦ-Cit-r-Cit-r-Q]-PEG12-K(N3)-NH2 [Compound 1b]
toxicity to RPTECs [7]: reduced toxicity to RPTECs
serum histamine release, fold lower than EEV12 (5 mg/kg IV vs 5 mg/kg EEV12, serum 15 min post-injection): ~ 3 fold
tolerability (C57BL/6 mice, IV, unconjugated cCPP): significantly enhanced tolerability
dose necessary for histamine release comparable to 5 mg/kg EEV12 (IV, serum 15 min post-injection): 20 mg/kg
cell viability [8]: non-significant losses in cell viability
cell viability [9]: non-significant losses in cell viability
LDH release [10]: no detectable LDH release
cell viability [11]: non-significant losses in cell viability
